Legend:
[1] = system: resistin mRNA in primary human macrophages; assay: Resistin mRNA expression in primary human macrophages (real time PCR); format: cell-based; conditions: TNFα treatment of primary human macrophages
Protocol: (§1) Peripheral blood mononuclear cells were isolated from whole blood of healthy donors following apheresis and elutriation. Greater than 90% of these monocytes expressed CD14 and HLA-DR. Cells were plated in 24 well plates at a density of 10^6 cells per well, allowed to adhere for 4 hours, then washed with Dulbecco's Modified Eagles Medium (DMEM) and further cultured in 10% FBS in DMEM supplemented with 5 ng/ml GM-CSF (Sigma) to promote macrophage differentiation. All experiments were performed after overnight equilibration with macrophage serum free medium (Gibco/Invitrogen) supplemented with 5 ng/ml GM-CSF. Cells were treated as indicated with LPS (Sigma), aspirin (Sigma), SN50 and control peptide (Biomol), MG132, PD98059, SB20358 (Calbiochem), and TNFα (R&D Systems). […]
RNA was isolated using RNeasy® Mini Kit (Qiagen), then subjected to DNAse digestion followed by reverse transcription (Invitrogen). mRNA transcripts were quantified by the dual-labeled fluorogenic probe method for real time PCR, using a Prism® 7900 thermal cycler and sequence detector (Perkin Elmer/ABI). […]
Primer and probe for TNFα was obtained from ABI. […] The fold change of the gene of interest expression relative to the vehicle treated group was expressed as 2^− δδ^CT, in which δδ CT equals the δCT of the compound treated group minus δCT of the chosen control group, which was normalized to 1.

[2] = system: resistin protein secretion by human macrophages; assay: Resistin protein secretion by primary human macrophages (ELISA); format: cell-based; conditions: TNFα treatment of primary human macrophages
Protocol: as §1, with “GM-CSF.” for “GM-CSF. Cells were treated as indicated with LPS (Sigma), aspirin (Sigma), SN50 and control peptide (Biomol), MG132, PD98059, SB20358 (Calbiochem), and TNFα (R&D Systems).”
Resistin concentrations, in cell media and human plasma, were assessed with a commercially available ELISA (Linco) and normalized to cell protein. […] Direct comparison of standard curves generated by the Linco kit with another commercially available resistin ELISA (Biovendor) yielded high correlation (rho=0.99, p<0.001), except that the Biovendor results were approximately 30% lower than those determined with the Linco assay. […] Resistin levels in 40 plasma samples were measured using both Linco and Biovendor ELISA kits, with moderate correlation (rho=0.66). Levels of soluble TNFα Receptor-2 were measured using a commercially available immunoassay (R&D Systems). […]

## TNFα: endotoxin-induced inflammatory cytokine (R&D Systems)
[1]
  effect on resistin gene expression: induced
[2]
  effect on resistin secretion: increased in parallel
